Laboratory results: patent US9656988B2 (Pharmacyclics LLC, priority 2013, dated 2017)
pIC50: −log10 of the molar value. Like-named read-outs stand apart in the source and are kept apart here.

Chains of the proteins cited; added tags and fusions are not shown. Lines headed by an entry give the natural chain unless they say otherwise; changes in a name come on top.
UniProt Q06187: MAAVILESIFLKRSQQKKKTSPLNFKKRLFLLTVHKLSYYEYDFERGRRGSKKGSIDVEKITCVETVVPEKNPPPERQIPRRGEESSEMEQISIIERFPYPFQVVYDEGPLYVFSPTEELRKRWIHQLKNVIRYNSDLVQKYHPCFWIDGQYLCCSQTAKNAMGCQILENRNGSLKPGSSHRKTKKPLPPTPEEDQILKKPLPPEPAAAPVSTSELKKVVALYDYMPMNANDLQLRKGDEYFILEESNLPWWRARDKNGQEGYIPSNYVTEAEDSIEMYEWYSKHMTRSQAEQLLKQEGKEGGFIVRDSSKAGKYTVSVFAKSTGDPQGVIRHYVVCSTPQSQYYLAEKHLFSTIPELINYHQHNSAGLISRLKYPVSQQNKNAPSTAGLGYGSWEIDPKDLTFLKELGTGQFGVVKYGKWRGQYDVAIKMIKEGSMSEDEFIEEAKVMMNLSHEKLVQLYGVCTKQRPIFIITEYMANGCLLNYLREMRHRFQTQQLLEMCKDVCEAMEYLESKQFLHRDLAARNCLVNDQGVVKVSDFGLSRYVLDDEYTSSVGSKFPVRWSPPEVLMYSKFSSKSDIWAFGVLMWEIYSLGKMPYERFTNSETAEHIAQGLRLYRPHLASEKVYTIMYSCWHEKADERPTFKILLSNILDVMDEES

Molecular target: BTK (Homo sapiens (Human), UniProt Q06187)
Assay: Btk in vitro inhibitory activity (one of Method A TR-FRET, Method B electrophoretic mobility shift, Method C radiometric filter binding)
Assay type: biochemical
[1] = determined using one of the methods of Example 355a, 355b and 355c, read-out: BTK IC50

Row | Compound | pIC50 [1] | pIC50 (read-out: Btk (IC50)) | pIC50 (Btk (IC50))
1 | NC(=O)c1nnc(N2CCC[C@@H](N)C2)nc1Nc1ccc(C(=O)N2CCOCC2)cc1 [Example 1, (R)-3-(3-aminopiperidin-1-yl)-5-(4-(morpholine-4-carbonyl)phenylamino)-1,2,4-triazine-6-carboxamide] | 5.00 to 6.00 | – | –
2 | CC(C)(C)c1ccc(C(=O)N[C@@H]2CCCN(c3nnc(C(N)=O)c(Nc4ccc(C(=O)N5CCOCC5)cc4)n3)C2)cc1 [Example 2, (R)-3-(3-(4-tert-butylbenzamido)piperidin-1-yl)-5-(4-(morpholine-4-carbonyl)phenylamino)-1,2,4-triazine-6-carboxamide] | > 8.00 | – | –
3 | C=CC(=O)N[C@@H]1CCCN(c2nnc(C(N)=O)c(Nc3ccc(C(=O)N4CCOCC4)cc3)n2)C1 [Example 22, (R)-3-(3-acrylamidopiperidin-1-yl)-5-(4-(morpholine-4-carbonyl)phenylamino)-1,2,4-triazine-6-carboxamide] | > 8.00 | – | –
4 | N#CCC(=O)N[C@@H]1CCCN(c2nnc(C(N)=O)c(Nc3ccc(C(=O)N4CCOCC4)cc3)n2)C1 [Example 27, (R)-3-(3-(2-cyanoacetamido)piperidin-1-yl)-5-(4-(morpholine-4-carbonyl)phenylamino)-1,2,4-triazine-6-carboxamide] | 7.00 to 8.00 | – | –
5 | CC(=O)N1CCC(C(=O)N[C@@H]2CCCN(c3nnc(C(N)=O)c(Nc4ccc(C(=O)N5CCOCC5)cc4)n3)C2)CC1 [Example 34, (R)-3-(3-(1-acetylpiperidine-4-carboxamido)piperidin-1-yl)-5-(4-(morpholine-4-carbonyl)phenylamino)-1,2,4-triazine-6-carboxamide] | 7.00 to 8.00 | – | –
6 | NC(=O)c1nnc(N2CCC[C@@H](NS(=O)(=O)C3CC3)C2)nc1Nc1ccc(C(=O)N2CCOCC2)cc1 [Example 40, (R)-3-(3-(cyclopropanesulfonamido)piperidin-1-yl)-5-(4-(morpholine-4-carbonyl)phenylamino)-1,2,4-triazine-6-carboxamide] | 7.00 to 8.00 | – | –
7 | NC(=O)c1nnc(N2CCC[C@@H](NC3CCCC3)C2)nc1Nc1ccc(C(=O)N2CCOCC2)cc1 [Example 43, (R)-3-(3-(cyclopentylamino)piperidin-1-yl)-5-(4-(morpholine-4-carbonyl)phenylamino)-1,2,4-triazine-6-carboxamide] | 6.00 to 7.00 | – | –
8 | Cc1cnc(C(=O)N[C@@H]2CCCN(c3nnc(C(N)=O)c(Nc4ccc(C(=O)N5CCOCC5)cc4)n3)C2)s1 [Example 92, (R)—N-(1-(6-carbamoyl-5-(4-(morpholine-4-carbonyl)phenylamino)-1,2,4-triazin-3-yl)piperidin-3-yl)-5-methylthiazole-2-carboxamide] | > 8.00 | > 8.00 | –
9 | Cc1csc(C(=O)N[C@@H]2CCCN(c3nnc(C(N)=O)c(Nc4ccc(C(=O)N5CCOCC5)cc4)n3)C2)n1 [Example 98, (R)—N-(1-(6-carbamoyl-5-(4-(morpholine-4-carbonyl)phenylamino)-1,2,4-triazin-3-yl)piperidin-3-yl)-4-methylthiazole-2-carboxamide] | 7.00 to 8.00 | 7.00 to 8.00 | –
10 | CCn1nnc2cc(C(=O)N[C@@H]3CCCN(c4nnc(C(N)=O)c(Nc5ccc(C(=O)N6CCOCC6)cc5)n4)C3)ccc21 [Example 100, (R)—N-(1-(6-carbamoyl-5-(4-(morpholine-4-carbonyl)phenylamino)-1,2,4-triazin-3-yl)piperidin-3-yl)-1-ethyl-1H-benzo[d][1,2,3]triazole-5-carboxamide] | > 8.00 | > 8.00 | –
11 | CN1CCN([C@@H]2CCCN(c3cnc(C(N)=O)c(Nc4ccc(C5(C)CCN(C6CCC6)CC5)cc4)n3)C2)C1=O [Example 212] | – | > 8.00 | –
12 | CN1CCN([C@@H]2CCCN(c3cnc(C(N)=O)c(Nc4ccc(C5(C)CCN(C6COC6)CC5)cc4)n3)C2)C1=O [Example 265, (R)-3-(4-(4-methyl-1-(oxetan-3-yl)piperidin-4-yl)phenylamino)-5-(3-(3-methyl-2-oxoimidazolidin-1-yl)piperidin-1-yl)pyrazine-2-carboxamide] | > 8.00 | – | –
13 | CN1CCN([C@@H]2CCCN(c3cnc(C(N)=O)c(Nc4ccc(C5(C)CCN(C6CCC6)CC5)cc4)n3)C2)C1=O [Example 266] | > 8.00 | – | –

Further lines, results first:

Row | pIC50 [1] | pIC50 (read-out: Btk (IC50)) | pIC50 (Btk (IC50)) | Compound
14 | 7.00 to 8.00 | – | – | NC(=O)c1nnc(N2CCC[C@@H](NC(=O)c3cnc4ccccc4c3)C2)nc1Nc1ccc(C(=O)N2CCOCC2)cc1 [Example 18, (R)—N-(1-(6-carbamoyl-5-(4-(morpholine-4-carbonyl)phenylamino)-1,2,4-triazin-3-yl)piperidin-3-yl)quinoline-3-carboxamide]
15 | 7.00 to 8.00 | – | – | CCC(=O)N[C@@H]1CCCN(c2nnc(C(N)=O)c(Nc3ccc(C(=O)N4CCOCC4)cc3)n2)C1 [Example 21, (R)-5-(4-(morpholine-4-carbonyl)phenylamino)-3-(3-propionamidopiperidin-1-yl)-1,2,4-triazine-6-carboxamide]
16 | 7.00 to 8.00 | – | – | NC(=O)c1nnc(N2CCC[C@@H](NC(=O)C3CCC3)C2)nc1Nc1ccc(C(=O)N2CCOCC2)cc1 [Example 26, (R)-3-(3-(cyclobutanecarboxamido)piperidin-1-yl)-5-(4-(morpholine-4-carbonyl)phenylamino)-1,2,4-triazine-6-carboxamide]
17 | 6.00 to 7.00 | – | – | CC(C)N[C@@H]1CCCN(c2nnc(C(N)=O)c(Nc3ccc(C(=O)N4CCOCC4)cc3)n2)C1 [Example 42, (R)-3-(3-(isopropylamino)piperidin-1-yl)-5-(4-(morpholine-4-carbonyl)phenylamino)-1,2,4-triazine-6-carboxamide]
18 | 7.00 to 8.00 | 7.00 to 8.00 | – | Cc1ccc(C(=O)N[C@@H]2CCCN(c3nnc(C(N)=O)c(Nc4ccc(C(=O)N5CCOCC5)cc4)n3)C2)s1 [Example 87, (R)-3-(3-(5-methylthiophene-2-carboxamido)piperidin-1-yl)-5-(4-(morpholine-4-carbonyl)phenylamino)-1,2,4-triazine-6-carboxamide]
19 | 7.00 to 8.00 | 7.00 to 8.00 | – | CN(C)C(=O)N[C@@H]1CCCN(c2cnc(C(N)=O)c(Nc3ccc(C4CCN(c5ccccc5)CC4)cc3)n2)C1 [Example 211, (R)-5-(3-(3,3-dimethylureido)piperidin-1-yl)-3-(4-(1-phenylpiperidin-4-yl)phenylamino)pyrazine-2-carboxamide]
20 | 6.00 to 7.00 | 6.00 to 7.00 | – | CN(C)C(=O)N[C@@H]1CCCN(c2cnc(C(N)=O)c(Nc3ccc(C4CCCCC4)cc3)n2)C1 [Example 212, (R)-3-(4-cyclohexylphenylamino)-5-(3-(3,3-dimethylureido)piperidin-1-yl)pyrazine-2-carboxamide]
21 | > 8.00 | > 8.00 | – | C[C@@H]1[C@H](NC(=O)c2ccccc2)CCCN1c1cnc(C(N)=O)c(Nc2ccc(C3CCN(C4CCCC4)CC3)cc2)n1 [Example 234, 5-((2R,3R)-3-benzamido-2-methylpiperidin-1-yl)-3-(4-(1-cyclopentylpiperidin-4-yl)phenylamino)pyrazine-2-carboxamide]
22 | 6.00 to 7.00 | – | 6.00 to 7.00 | C[C@H]1[C@H](NC(=O)c2ccccc2)CCCN1c1cnc(C(N)=O)c(Nc2ccc(C3CCN(C4CCCC4)CC3)cc2)n1 [Example 235, 5-((2S,3R)-3-benzamido-2-methylpiperidin-1-yl)-3-(4-(1-cyclopentylpiperidin-4-yl)phenylamino)pyrazine-2-carboxamide]
23 | > 8.00 | > 8.00 | – | NC(=O)c1ncc(N2CCC[C@@H](N3CCCC3=O)C2)nc1Nc1ccc(C2CCN(C3CCCC3)CC2)cc1 [Example 306, (R)-3-(4-(1-cyclopentylpiperidin-4-yl)phenylamino)-5-(3-(2-oxopyrrolidin-1-yl)piperidin-1-yl)pyrazine-2-carboxamide]
24 | 6.00 to 7.00 | 6.00 to 7.00 | – | NC(=O)c1ncc(N2CCC[C@@H](N)C2)nc1Nc1ccc(C2CCN(C3CC3)CC2)cc1 [Example 308, (R)-5-(3-aminopiperidin-1-yl)-3-(4-(1-cyclopropylpiperidin-4-yl)phenylamino)pyrazine-2-carboxamide]
